The results in this text go back to paper PMC1977344 (British Journal of Cancer, 1992).

By UniProt entry, the sequences of proteins in these tests, tags left out.
UniProt P33535, whole entry: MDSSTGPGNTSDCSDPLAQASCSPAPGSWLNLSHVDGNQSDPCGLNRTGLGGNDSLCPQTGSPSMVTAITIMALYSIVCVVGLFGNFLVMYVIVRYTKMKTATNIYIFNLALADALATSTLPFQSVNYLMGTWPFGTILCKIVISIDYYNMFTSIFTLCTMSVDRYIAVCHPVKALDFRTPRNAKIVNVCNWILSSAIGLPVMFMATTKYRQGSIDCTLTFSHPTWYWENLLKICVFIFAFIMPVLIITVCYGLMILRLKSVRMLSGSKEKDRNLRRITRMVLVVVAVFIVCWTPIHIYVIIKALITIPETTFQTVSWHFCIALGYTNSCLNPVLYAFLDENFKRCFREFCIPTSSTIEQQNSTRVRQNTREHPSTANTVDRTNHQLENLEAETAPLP

In this assay the target is mu 1 receptor (Rattus norvegicus, UniProt P33535). Nature of the assay: Radioligand binding, mu 1 assay (3H-DSLET displacement with DPDPE block, rat brain P2 homogenate). Set-up: species or system Wistar rats. Conditions: unlabelled ligand, Figure 1.

Turning to [D-Ser2, Leu5]-enkephalin [DSLET], the “affinity at mu 1 receptor relative to morphine and M6G” value is “higher affinity than either compound”.
